Literature values in patent US20110287437A1, “ASSAYS TO PREDICT CARDIOTOXICITY” (priority 2010, published 2011).

Conditions: treatment of patients; prescribing information

Substance: trastuzumab: the monoclonal antibody that targets the ERBB2 receptor
- Cardiotoxicity / adverse cardiac effects reported: Cardiotoxicity of a targeted agent was first reported
